Drawing on ChEMBL document CHEMBL1124756, “The discovery of potent nonpeptide angiotensin II receptor antagonists: a new class of potent antihypertensives” (J Med Chem, 1990), this text covers IC50 for one molecule.

Sequences of proteins named here, by UniProt entry; tags and fusion partners are left off. A change or cut given only in a name is not applied to a line headed by its entry.
UniProt P29089: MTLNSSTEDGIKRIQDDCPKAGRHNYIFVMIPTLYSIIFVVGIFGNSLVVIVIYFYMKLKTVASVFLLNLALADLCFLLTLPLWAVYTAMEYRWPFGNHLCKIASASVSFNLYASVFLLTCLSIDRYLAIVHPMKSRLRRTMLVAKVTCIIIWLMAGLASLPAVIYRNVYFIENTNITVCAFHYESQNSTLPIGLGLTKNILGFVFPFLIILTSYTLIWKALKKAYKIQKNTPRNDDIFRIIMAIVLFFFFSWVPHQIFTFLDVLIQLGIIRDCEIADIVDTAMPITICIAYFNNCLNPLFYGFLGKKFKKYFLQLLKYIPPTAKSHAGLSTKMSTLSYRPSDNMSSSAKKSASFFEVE
UniProt P25095: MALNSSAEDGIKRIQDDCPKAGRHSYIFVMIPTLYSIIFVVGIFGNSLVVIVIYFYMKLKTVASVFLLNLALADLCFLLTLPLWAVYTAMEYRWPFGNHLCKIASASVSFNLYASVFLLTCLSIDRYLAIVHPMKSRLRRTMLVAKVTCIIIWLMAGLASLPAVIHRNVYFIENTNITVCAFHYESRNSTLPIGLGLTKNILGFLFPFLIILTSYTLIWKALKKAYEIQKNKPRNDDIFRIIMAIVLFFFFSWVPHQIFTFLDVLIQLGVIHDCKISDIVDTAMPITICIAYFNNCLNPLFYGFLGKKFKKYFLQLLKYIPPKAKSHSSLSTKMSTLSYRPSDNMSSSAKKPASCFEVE
UniProt P35351: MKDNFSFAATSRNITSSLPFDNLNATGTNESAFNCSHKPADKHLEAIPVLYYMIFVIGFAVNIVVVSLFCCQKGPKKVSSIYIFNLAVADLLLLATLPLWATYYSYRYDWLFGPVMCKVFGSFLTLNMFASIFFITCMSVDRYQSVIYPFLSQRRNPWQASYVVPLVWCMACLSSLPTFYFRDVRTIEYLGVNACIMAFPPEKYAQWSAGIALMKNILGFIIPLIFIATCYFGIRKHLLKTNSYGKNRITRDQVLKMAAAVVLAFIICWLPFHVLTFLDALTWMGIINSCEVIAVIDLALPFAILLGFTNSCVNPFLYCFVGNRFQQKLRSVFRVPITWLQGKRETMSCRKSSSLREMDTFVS

As usually defined, the IC50 is the concentration at which inhibition is half-maximal. Higher therefore signals weaker potency in that assay.

For this assay, the target named is Angiotensin II receptor (Rattus norvegicus, UniProt P29089+P25095+P35351). Nature of the assay: Inhibitory concentration that gave 50 percent displacement of specific binding of [3H]AII (2 nM) to Angiotensin II receptor. The assay is classed as protein assay. A digest of the protocol: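 Rat adrenal cortical microsomes from male Sprague–Dawley rats, resuspended in 50 mM Tris pH 7.2, 5 mM MgCl2, 0.25% BSA. Membranes (0.02–0.03 mg protein) incubated with [3H]AII 2 nM plus varying inhibitor concentrations, 60 min at 25 °C with shaking. Glass-fiber filtration, scintillation counting, duplicates. Nonspecific binding defined with 1 μM unlabeled AII. IC50 taken from linear portion of displacement curve.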

`CCCCc1nc(Cl)c(CC(=O)O)n1Cc1ccccc1Cl` yielded a concentration for half-maximal inhibition (IC50) of 40 µM.
